Reference: patent publication US20070031902A1, “Predictive Methods For Cancer Chemotherapy” (priority 2005, published 2007)

Experiments:
pERK = experiment: IHC of pERK in HT1080 cells treated with DFO and HIF-1α inhibitor
pAKT = experiment: IHC of pAKT in HT1080 cells treated with DFO and HIF-1α inhibitor; conditions: DFO + increasing HIF-1α inhibitor (FIG. 7B)
pMEK = experiment: IHC of pMEK in HT1080 cells treated with DFO and HIF-1α inhibitor
HIF-1α [1] = experiment: Western blot and densitometry of HIF-1α in HT1080 cells; conditions: DFO + 25, 50, 75 μM PX-478
HIF-1α [2] = experiment: IHC and image analysis of HIF-1α in HT1080 cells (DFO, PX-478 dose escalation); assay type: cell-based, human; conditions: DFO + 25, 50, 75 μM PX-478
pS6 = experiment: IHC of pS6 in HT1080 cells treated with DFO and HIF-1α inhibitor; conditions: DFO + increasing HIF-1α inhibitor (FIG. 7B)
[3] = DFO + increasing HIF-1α inhibitor (FIG. 7B)

N[C@@H](Cc1ccc([N+]([O-])(CCCl)CCCl)cc1)C(=O)O
level of expression inhibition of pERK in response to hypoxia (pERK; [3]): reduced
pERK (marker of the EGF pathway) expression (pERK; DFO + increasing concentrations of HIF-1α inhibitor): increased
pAKT expression (IHC) (pAKT): not altered
pMEK staining (IHC) (pMEK; DFO + 25, 50, 75 μM PX-478): increased pMEK staining
level of expression inhibition of pMEK in response to hypoxia (pMEK; [3]): reduced
pMEK combined score ((% positive)×(optical density score)) (pMEK; DFO + increasing concentrations of HIF-1α inhibitor (FIG. 7C)): increase
levels of HIF-1α (Western blot, densitometry) (HIF-1α [1]): decrease in levels of HIF-1α
HIF-1α expression in response to DFO-induced hypoxia (IHC, image analysis) (HIF-1α [2]): concentration-dependent decrease
pS6 expression (IHC) (pS6): not altered
